# Measurements published in patent US20110123543A1 (MATHILDA AND TERENCE KENNEDY INSTITUTE OF RHEUMATOLOGY TRUST, published 2011).
# Sequences of proteins named here, by UniProt entry; tags and fusion partners are left off. Residues count along the entry.
# UniProt P01375, 77-233 limits assumed: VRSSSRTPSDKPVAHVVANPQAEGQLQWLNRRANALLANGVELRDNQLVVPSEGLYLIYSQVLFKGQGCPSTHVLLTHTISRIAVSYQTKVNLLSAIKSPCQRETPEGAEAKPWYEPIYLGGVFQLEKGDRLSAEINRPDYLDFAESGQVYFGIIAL
# B1: murine monoclonal antibody (mAb) A2 (antibody, V domains shown)
# VH: EVKLEESGGGLVQPGGSMKLSCVASGFIFSNHWMNWVRQSPEKGLEWVAEIRSKSINSATHYAESVKGRFTISRDDSKSAVYLQMTDLRTEDTGVYYCSRNYYGSTYDYWGQGTTLTVS
# VL: DILLTQSPAILSVSPGERVSFSCRASQFVGSSIHWYQQRTNGSPRLLIKYASESMSGIPSRFSGSGSGTDFTLSINTVESEDIADYYCQQSHSWPFTFGSGTNLEVK
# Molecular target: T1, recombinant human TNFα (rhTNF, Dainippon, Osaka, Japan) (human, UniProt P01375 77-233)
# T1 construct: also called rhTNFα; hTNFα
# Assay: Scatchard analysis; direct binding of 125I-labelled antibody to rhTNFα immobilized in a 96-well plate
binder,measurement,value
B1,Ka,5e+08 M⁻¹
